We go through 88 compounds from PubChem BioAssay AID504326 (The Scripps Research Institute Molecular Screening Center, 2011).

Protein sequences, listed by entry. Tags and fused reporters are not part of them.
UniProt P35372, whole entry, looked up: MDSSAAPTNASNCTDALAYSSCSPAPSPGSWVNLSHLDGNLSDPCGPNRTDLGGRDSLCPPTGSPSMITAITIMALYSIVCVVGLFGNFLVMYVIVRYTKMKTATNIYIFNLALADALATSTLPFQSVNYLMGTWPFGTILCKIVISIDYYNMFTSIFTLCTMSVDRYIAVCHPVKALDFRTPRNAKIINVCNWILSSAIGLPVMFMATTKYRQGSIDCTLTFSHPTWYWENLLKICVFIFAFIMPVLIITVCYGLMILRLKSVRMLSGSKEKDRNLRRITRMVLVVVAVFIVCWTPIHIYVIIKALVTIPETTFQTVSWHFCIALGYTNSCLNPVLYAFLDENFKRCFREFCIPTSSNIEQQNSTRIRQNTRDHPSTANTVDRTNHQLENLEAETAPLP
UniProt P41143, whole entry, looked up: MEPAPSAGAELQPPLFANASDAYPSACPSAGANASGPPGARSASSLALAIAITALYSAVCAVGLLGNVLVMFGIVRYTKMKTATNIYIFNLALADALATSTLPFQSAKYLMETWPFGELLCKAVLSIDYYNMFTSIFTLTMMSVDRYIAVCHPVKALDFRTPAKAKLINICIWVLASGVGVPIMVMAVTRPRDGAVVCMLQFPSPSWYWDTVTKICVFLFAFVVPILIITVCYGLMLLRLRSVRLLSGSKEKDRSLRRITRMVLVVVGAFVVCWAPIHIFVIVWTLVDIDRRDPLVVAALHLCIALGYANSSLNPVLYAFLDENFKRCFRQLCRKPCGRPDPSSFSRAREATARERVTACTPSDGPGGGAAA

The entries are a selection whose mix differs from that of the whole data set. Activity calls are given as the source filed them. No stated cut-off is given here; in the data, active means activation above about 18%; inactive means the rest.

The target of the experiment is Mu-type opioid receptor (Homo sapiens) + Delta-type opioid receptor (Homo sapiens) (UniProt P35372+P41143). As to the kind of experiment: inducers of mu-delta opioid receptor heterodimers – cell-based, luminescence, primary screen (AID 504326).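 Further: 0% = vehicle-treated cells and 100% = reference agonist.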 To be noted: cells, OPRM1-OPRD1 heterodimerization, at 9.3 µM, active compounds read high.
`CCc1cccc(C)c1NC(=O)CSc1nc2ccccc2n1CC(=O)N(C)C`: the activation is inactive: -1.91%.

Regarding `CCN1C(=O)CC(n2c(C)nc3ccccc32)C1=O` (stereo not drawn), the activation was inactive: -2.07%.

On to `Cn1c(=O)[nH]c(=O)c2c1nc(N1CCCCCC1)n2CC(N)=O`, for which the activation is inactive: -2.53%.

As to `Nc1nonc1-c1nc2ccccc2n1CC(=O)N/N=C/c1ccc(-c2ccccc2C(=O)O)o1`, the activation is inactive: -2.57%.

As for `COc1ccc(-c2nn(-c3ccccc3)cc2C(=O)N2c3ccc(C)cc3C3CN(C)CCC32)cc1` (stereo not drawn), the activation is inactive: 0%.

As for `COc1ccc(CNc2nc3ccccc3n2CCN2CCCCC2)cc1`, the activation was inactive: -1.25%.

`COCCN1CCn2c(nc3cc(NS(C)(=O)=O)ccc32)C1`: the activation was inactive: -1.47%.

`Cc1cccc(OCC(O)Cn2c(=N)n(CCN3CCCCC3)c3ccccc32)c1` (stereo not drawn): the activation was inactive: 1.02%.

Take `O=C(Cn1cnc2ccccc21)N/N=C/c1ccco1`: the activation was inactive: -2.71%.

Turning to `COc1ccc(OC)c(CNc2nc3ccccc3n2CCN2CCCCC2)c1`, the activation is inactive: -0.65%.

Take `O=C(Cn1cnc2ccccc21)Nc1ccccc1-c1ccccc1`: the activation was inactive: -0.47%.

Consider `Cc1ccc2c(c1)C1CN(C)CCC1N2S(=O)(=O)c1ccc(C(C)C)cc1` (stereo not drawn), for which the activation is inactive: 1.71%.

`CCSc1nc2ccccc2n1CC(N)=O`: the activation is inactive: -1.88%.

For `CCC(C)N(C(=O)Cn1c(Cl)nc2c1c(=O)n(C)c(=O)n2C)C1CCS(=O)(=O)C1` (stereo not drawn), the activation is inactive: -1.01%.

For the compound `Brc1cccc(CNc2nc3ccccc3n2CCN2CCCCC2)c1`, the activation was inactive: -1.5%.

Regarding `COC(=O)[C@H](Cc1ccccc1)NC(=O)Cn1cnc2c(NCc3ccccc3)ncnc21`, the activation is inactive: -3.56%.

Regarding `Cn1c(=O)c2c(nc(CN3CCN(Cc4ccccc4)CC3)n2CCN2CCOCC2)n(C)c1=O`, the activation is inactive: -1.83%.

With `CC(NC(=O)Cn1c(NCCO)nc2ccccc21)c1ccccc1` (stereo not drawn), the activation is inactive: -2.03%.

In the case of `CSCC[C@H](NC(=O)N1CCn2c1nc1ccccc12)C(=O)NC1CC1`, the activation is inactive: -2.55%.

`O=C(NC1CCCCC1)C(c1ccccc1)N(Cc1ccco1)C(=O)Cn1cnc2ccccc21` (stereo not drawn): the activation is inactive: -0.33%.

Take `Cc1ccc(C(=O)Cn2c(=N)n(CCN3CCOCC3)c3ccccc32)cc1`: the activation is inactive: 5.44%.

For the compound `CCOc1ccc(CNc2nc3ccccc3n2CCN2CCOCC2)cc1`, the activation is inactive: 0.43%.

Take `CCN(CC)c1ccc(NC(=O)Cn2c(C(C)NC(=O)c3ccc(C)cc3)nc3ccccc32)cc1` (stereo not drawn): the activation is inactive: 1.78%.

Take `O=S(=O)(c1ccccc1)c1nnn2c1nc(NC1CCN(Cc3ccccc3)CC1)c1cc(Cl)ccc12`: the activation is active: 19.2%.

Regarding `COc1ccc(Cc2nnc(NC(=O)Cn3cnc4c3c(=O)n(C)c(=O)n4C)s2)cc1OC`, the activation is inactive: -0.32%.

With `CCCn1c(=O)c2c(nc3n2CCN3Cc2ccco2)n(C)c1=O`, the activation was inactive: 0.37%.

Turning to `O=S(=O)(c1ccc(Cl)cc1)N1CCn2c1nc1ccccc12`, the activation is inactive: -0.3%.

`CSCC[C@H](NC(=O)N1CCn2c1nc1ccccc12)C(=O)NCc1ccc2c(c1)OCO2`: the activation was inactive: -1.14%.

For `CC(/C=N/NC(=O)Cn1cnc2ccccc21)=C\c1ccccc1`, the activation is inactive: -0.51%.

Regarding `CCOC(=O)Cn1c(=O)oc2cc(S(=O)(=O)N3CCn4c3nc3ccccc34)ccc21`, the activation is inactive: 0.03%.

In the case of `CC(C)[C@H](NC(=O)N1CCn2c1nc1ccccc12)C(=O)N[C@@H](Cc1ccccc1)C(=O)O`, the activation was inactive: -2.67%.

Turning to `Cc1ccc(-c2csc(N3CCC[C@@H]3C(=O)NCCn3c(-c4ccncc4)nc4ccccc43)n2)cc1`, the activation was inactive: 3.75%.

Regarding `O=C(Cn1cnc2ccccc21)N/N=C/c1ccccc1`, the activation was inactive: -1.28%.

In the case of `CN(C)Cc1ccc(-c2nc3cccc4c3n2CCNC4=O)cc1`, the activation was inactive: -3.15%.

As to `COc1ccc(-c2ccc3c(c2)[C@@H]2C[C@H](N(C)C(=O)C(C)(C)C)[C@H]([C@H](C)O)C(=O)N2CC3)cc1`, the activation was inactive: 0.63%.

As for `CCCC(=O)Nc1ccc2c(c1)nc1n2CCN(C2CCCCC2)C1`, the activation is inactive: -1.27%.

With `O=C(Cn1c(CO)nc2ccccc21)Nc1cc(C(F)(F)F)ccc1N1CCOCC1`, the activation is inactive: 0.15%.

Regarding `Cc1ccc(NC(=O)Cn2c(/C=C/c3ccccc3)nc3ccccc32)cc1C`, the activation was inactive: 2.72%.

With `CCN(C(=O)Cn1c(Cl)nc2c1c(=O)n(C)c(=O)n2C)C1CCCCC1`, the activation was inactive: -1.27%.

Consider `O=C(CCCCCNC(=O)N1CCn2c1nc1ccccc12)NCc1ccccc1`, for which the activation was inactive: -3.87%.

Consider `CCNC(=O)Cn1cnc2c1c(=O)n(C)c(=O)n2C`, for which the activation is inactive: 1.63%.

With `CSc1nc2ccccc2n1CC(=O)Nc1cc(C(F)(F)F)ccc1N1CCOCC1`, the activation was inactive: -3.93%.

For `CCOc1ccc(CCNC(=O)Cn2c(-c3nonc3N)nc3ccccc32)cc1OCC`, the activation is inactive: -1.78%.

Take `CCN(CC)CCn1c(NCc2nc3ccccc3n2Cc2ccccc2)nc2ccccc21`: the activation was inactive: 15.3%.

On to `c1nnnn1CCn1cnnn1`, for which the activation is inactive: -1.58%.

As for `CCC(=O)Nc1cccc(C(=O)/C=C/c2ccccc2)c1`, the activation was inactive: 2.81%.

Consider `CCN(CC)C(=O)CSc1nc2ccccc2n1CC(=O)N1CCN(c2ccccc2OC)CC1`, for which the activation was inactive: 0.81%.

In the case of `CCN(CC)CCn1c(=N)n(CC(O)c2ccc(OC)c(OC)c2)c2ccccc21` (stereo not drawn), the activation is inactive: 3.97%.

For `O=C(c1cccs1)N1CCn2c1nc1ccccc12`, the activation is inactive: -1.84%.

Regarding `CC(C)C[C@H](NC(=O)N1CCn2c1nc1ccccc12)C(=O)NC1CC1`, the activation was inactive: -1.89%.

Consider `COc1ccc(NC(=O)CN(C)C(=O)Cn2cnc3c2c(=O)n(C)c(=O)n3C)cc1`, for which the activation is inactive: -0.97%.

For the compound `CC1CCCC(C)N1C(=O)Cn1c(SCC(=O)Nc2ccc3c(c2)OCO3)nc2ccccc21` (stereo not drawn), the activation is inactive: -0.91%.

For `c1ccc2c(c1)nc1n2CCN1CCN1CCCC1`, the activation is inactive: -3.03%.

As for `Cn1c(=O)c2c(ncn2CC(=O)N2CCN(S(=O)(=O)c3ccccc3)CC2)n(C)c1=O`, the activation is inactive: -1.47%.

Take `CCOCCn1c(=O)c2c(nc3n2CCN3c2ccc(C)cc2)n(C)c1=O`: the activation is inactive: -2.6%.

As to `Cc1ccccc1Oc1ccc2c(c1)[C@@H]1C[C@H](N(C)C(=O)NC3CCCCC3)[C@H]([C@H](C)O)C(=O)N1CC2`, the activation is inactive: -0.63%.

For `COc1ccc(OCC(O)Cn2c(=N)n(CCN3CCCCC3)c3ccccc32)cc1` (stereo not drawn), the activation is inactive: -2.12%.

`C[C@@H](NC(=O)Cn1cnc2c(OCc3ccccc3)ncnc21)c1cccc2ccccc12`: the activation was inactive: 2.79%.

On to `N#CCCN1CCn2c1nc1ccccc12`, for which the activation is inactive: -1.33%.

In the case of `O=C(Cn1cnc2c(OCc3ccccc3)ncnc21)NCC1CCCO1` (stereo not drawn), the activation was inactive: -3.31%.

For the compound `Cn1c(=O)c2ncn(CC(=O)N/N=C/c3ccco3)c2n(C)c1=O`, the activation is inactive: -0.99%.

As to `c1ccc(CNc2nc3ccccc3n2CCN2CCOCC2)nc1`, the activation is inactive: -1.23%.

For the compound `O=P(Nc1nccs1)(c1ccccc1)c1ccccc1`, the activation was inactive: -2.41%.

As for `Cn1c(=O)n(CC(=O)N2CCOCC2)c2ccccc21`, the activation is inactive: -1.3%.

In the case of `CC(C)C(=O)NC(Sc1ccccc1)C(Cl)(Cl)Cl` (stereo not drawn), the activation was inactive: 2.73%.

As to `CCC(C(=O)NC1CCCCC1)n1c(SCc2cccc(F)c2)nc2ccncc21` (stereo not drawn), the activation was inactive: 0.69%.

Regarding `CC(/C=N/NC(=O)Cn1cnc2c1c(=O)n(C)c(=O)n2C)=C\c1ccccc1`, the activation was inactive: -1.63%.

In the case of `CC(C)c1ccccc1NC(=O)Cn1c(-c2ccccc2Cl)nc2ccccc21`, the activation was inactive: -2.3%.

As to `CC(C)C[C@H](NC(=O)N1CCn2c1nc1ccccc12)C(=O)N[C@H](Cc1ccccc1)C(=O)O`, the activation is inactive: -2.35%.

In the case of `CCc1ccc(NC(=O)Cn2cnc3c(=O)n(C)c(=O)n(C)c32)cc1`, the activation is inactive: 0.73%.

Regarding `CCS(=O)(=O)c1nc2ccccc2n1CC(=O)N1CCCCC1`, the activation is inactive: -4.14%.

On to `O=C(Cn1cnc2ccccc21)Nc1ccc(C(=O)O)cc1`, for which the activation is inactive: -0.8%.

Take `O=C(C1COc2ccccc2O1)N1CCn2c(nc3ccccc32)C1` (stereo not drawn): the activation was inactive: -1.28%.

As for `COc1ccccc1OCC(O)Cn1c(=N)n(CCN2CCCCC2)c2ccccc21` (stereo not drawn), the activation was inactive: -1.76%.

`CC(C)C[C@H](NC(=O)N1CCn2c1nc1ccccc12)C(=O)NCc1ccccc1`: the activation is inactive: -2.02%.

In the case of `Fc1ccc2c(c1)nnn2C1CCN(Cc2nnnn2CCc2ccccc2)CC1`, the activation was inactive: -1.76%.

`CC(C)[C@H](NC(=O)N1CCn2c1nc1ccccc12)C(=O)NCc1ccc(F)cc1`: the activation is inactive: -0.08%.

Regarding `COCC(=O)N(C)[C@H]1C[C@H]2c3cc(Oc4ccccc4C)ccc3CCN2C(=O)[C@H]1[C@H](C)O`, the activation was inactive: -3.57%.

Regarding `COCCN1CCn2c(nc3cc(NC(=O)Cn4nc(C)c5ccccc5c4=O)ccc32)C1`, the activation is inactive: -1.32%.

With `COc1ccc(CCNC(=O)[C@H](C)NC(=O)N2CCn3c2nc2ccccc23)cc1OC`, the activation is inactive: -1.28%.

With `CC(=O)Nc1ccc([As](=O)(O)O)c(O)c1`, the activation is inactive: -3.55%.

In the case of `O=S(=O)(c1ccc(F)cc1)N1CCn2c(nc3ccccc32)C1`, the activation is inactive: -1.46%.

Turning to `CSCC[C@H](NC(=O)N1CCn2c1nc1ccccc12)C(=O)NC1CCCCC1`, the activation was inactive: -0.4%.

`CC1=NNC(=O)C1CCC(=O)N/N=C/C=C/c1ccccc1` (stereo not drawn): the activation was inactive: -3.54%.

Take `CCOC(=O)c1ccc(NC(=O)C2CC(=O)Nc3nc4ccccc4n32)cc1` (stereo not drawn): the activation is inactive: -1.65%.

For `CCC(C(=O)NC1CCCC1)n1c(SCc2cccc(C)c2)nc2ccncc21` (stereo not drawn), the activation is inactive: 0.41%.

`COc1ccc2c(c1)C1(Nc3ccccc3-c3nc4ccccc4n31)C(=O)N2` (stereo not drawn): the activation was inactive: -1.5%.

Consider `Cn1c(=O)c2c(ncn2CC(=O)Nc2cc(S(=O)(=O)N3CCCCC3)ccc2Cl)n(C)c1=O`, for which the activation is inactive: -1.11%.
